Measurements as given in ChEMBL document CHEMBL5370533, “Rational design of 4-((6-phenoxypyrimidin-4-yl)amino)-N-(4-(piperazin-1-yl)phenyl)-1H-pyrazole-3-carboxamide (LT-540-717) as orally bioavailable FLT3 inhibitor” (Eur J Med Chem, 2023).

Columns and labels:
[1] = species on record: Homo sapiens; test: Selectivity ratio of IC50 for human CDK2 to IC50 for human FLT3
[2] = species on record: Homo sapiens; test: Selectivity ratio of IC50 for human CDK6 to IC50 for human FLT3

Ratio IC50 [1]: 150 | Ratio IC50 [2]: 150
SMILES: O=C(Nc1ccc(N2CCNCC2)cc1)c1n[nH]cc1Nc1cc(Oc2ccccc2)ncn1
